Experimental data taken from BindingDB's records for doi:10.1021/jm801343r (University of Washington At Seattle, 2009).

Biological target: T1, Dihydroorotate dehydrogenase (quinone), mitochondrial [100-517] (Plasmodium berghei (strain Anka), UniProt A0A509AEH5)
T1 construct: 100-517
T1 sequence (A0A509AEH5 whole entry): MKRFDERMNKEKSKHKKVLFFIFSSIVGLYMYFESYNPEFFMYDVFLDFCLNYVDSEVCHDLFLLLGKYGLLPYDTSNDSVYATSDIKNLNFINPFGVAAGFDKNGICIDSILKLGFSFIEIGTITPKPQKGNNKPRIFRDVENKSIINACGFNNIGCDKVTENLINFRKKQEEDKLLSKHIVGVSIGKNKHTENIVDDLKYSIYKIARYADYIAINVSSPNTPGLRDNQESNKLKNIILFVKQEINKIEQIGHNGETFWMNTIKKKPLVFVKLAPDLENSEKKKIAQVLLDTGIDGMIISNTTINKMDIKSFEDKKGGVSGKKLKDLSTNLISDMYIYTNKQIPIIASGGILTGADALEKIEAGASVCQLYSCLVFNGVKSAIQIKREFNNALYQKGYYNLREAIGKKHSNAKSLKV
Assay: DHODH Inhibition Assay
Method: The assays were carried out by using a colorimetric DCIP method, which uses the colorimetric reagent 2, 6-dichlorophenolindophenol as the final electron acceptor. DCIP reduction is stoichiometrically equivalent to oxidation of dihydroorotate. Changes in absorbance were quantified on a plate reader and data were analyzed to measure the reduction of DCIP as a decrease in absorbance at 600 nm.

Cc1cc(Nc2ccc3ccccc3c2)n2ncnc2n1 [JMC521864 Compund DSM1]
IC50: 230 nM
